# Earlier results as cited in patent publication US20070122482A1, “Method for preparing modified release pharmaceutical compositions” (priority 2003, published 2007).
smiles,measurement,value
Cc1nc2n(c(=O)c1CCN1CCC(c3noc4cc(F)ccc34)CC1)CCCC2 [Risperidone],Solubility in water,Insoluble
